The chains behind the UniProt entries cited, without tags or fusion partners.
UniProt P30542, whole entry: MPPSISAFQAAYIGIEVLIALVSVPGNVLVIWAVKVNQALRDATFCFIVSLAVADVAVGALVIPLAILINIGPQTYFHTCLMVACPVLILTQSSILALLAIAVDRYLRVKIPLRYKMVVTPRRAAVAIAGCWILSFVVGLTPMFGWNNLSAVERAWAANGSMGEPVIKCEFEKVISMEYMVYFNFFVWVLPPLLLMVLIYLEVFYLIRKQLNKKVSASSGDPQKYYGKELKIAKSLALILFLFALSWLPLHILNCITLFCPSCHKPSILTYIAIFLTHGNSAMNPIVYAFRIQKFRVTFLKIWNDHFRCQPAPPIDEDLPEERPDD

According to patent US11306071B2, “Heterocyclic compounds as adenosine antagonists” (Nuvation Bio Inc., priority 2019, dated 2022):

Tests used:
[1] = biological target: adenosine A2a (human) membrane (Homo sapiens (Human), UniProt P29274); test: A2A adenosine receptor radioligand binding assay ([3H] CGS-21680); conditions: read-out: A2a binding IC50; radioligand [3H] CGS-21680 6 nM
Protocol: A second A2A adenosine receptor radioligand binding assay protocol was used. The protocol used adenosine A2a (human) membrane (PerkinElmer RBHA2AM400UA) at a concentration of 5 μg/well/100 μl and the radioligand [3H] CGS-21680 (Cat No. PerkinElmer-NET1021250UC) at a final concentration of 6 nM. Testing compounds were diluted with DMSO to make 8-point 4-fold serial dilution, starting at 0.2 mM. CGS-15943 was the reference compound. 1 μl of compounds/high control/low control was transferred to the assay plate according to a plate map, followed by 100 μl of membrane stocks and 100 μl of radioligand, in assay buffer (50 mM Tris-HCl, 10 mM MgCl2, 1 mM EDTA, pH 7.4). The plate was sealed and incubated at RT for 2 hours. Unifilter-96 GF/C filter plates (Perkin Elmer Cat #6005174) were soaked with 50 μl of 0.3% PEI per well for at least 0.5 hour at room temperature. […] After drying, the bottom of the filter plate wells was sealed, 50 μl of Perkin Elmer Microscint 20 cocktail was added, and the top of the filter plate was sealed. ^3H trapped on the filter was counted using Perkin Elmer MicroBeta2 Reader. The data were analyzed with GraphPad Prism 5 to obtain binding IC50 values. The “Inhibition [% Control]” was calculated using the equation: % Inh=(1-Background subtracted Assay value/Background subtracted HC value)*100, where HC is high control.

[2] = biological target: adenosine A1 (human) membrane (Homo sapiens (Human), UniProt P30542); test: A1 adenosine receptor radioligand binding assay ([3H] DPCPX); conditions: 200 nM compound; radioligand [3H] DPCPX 1 nM
Protocol: A second A1 adenosine receptor radioligand binding assay protocol was used. The protocol used adenosine A1 (human) membrane (PerkinElmer ES-010-M400UA) at a concentration of 2.5 μg/well/100 μl and the radioligand [3H] DPCPX (Cat No. PerkinElmer-NET974250UC) at a final concentration of 1 nM. Testing compounds were tested at a final concentration of 200 nM. CGS-15943, the reference compound, was tested in an 8-point 4-fold serial dilution, starting at a top concentration of 1 μM. 1 μl of compounds/high control/low control was transferred to the assay plate according to a plate map, followed by 100 μl of membrane stocks and 100 μl of radioligand, in assay buffer (25 mM HEPES, 5 mM MgCl2, 1 mM CaCl2, 100 mM NaCl, pH 7.4). The plate was sealed and incubated at RT for 1 hour. […] After drying, the bottom of the filter plate wells was sealed, 50 μl of Perkin Elmer Microscint 20 cocktail was added, and the top of the filter plate was sealed. ^3H trapped on the filter was counted using Perkin Elmer MicroBeta2 Reader. The data were analyzed with GraphPad Prism 5 to obtain binding IC50 values for the reference compound. The “Inhibition [% Control]” was calculated using the equation: % Inh=(1-Background subtracted Assay value/Background subtracted HC value)*100, where HC is high control.

IC50 [1]: 2 nM
A1 binding inhibition at 200 nM (%) [2]: 92%
Structure (SMILES): C[C@@H](NC(=O)c1nc(-c2ccc3ncccc3c2)c(-c2ccccc2)nc1N)c1cnccn1
